Measured values reported in paper PMC8369945 (Hepatology Communications, 2021).

Target: T1, PPARα (Homo sapiens, UniProt Q07869)
T1 sequence (Q07869 1-468): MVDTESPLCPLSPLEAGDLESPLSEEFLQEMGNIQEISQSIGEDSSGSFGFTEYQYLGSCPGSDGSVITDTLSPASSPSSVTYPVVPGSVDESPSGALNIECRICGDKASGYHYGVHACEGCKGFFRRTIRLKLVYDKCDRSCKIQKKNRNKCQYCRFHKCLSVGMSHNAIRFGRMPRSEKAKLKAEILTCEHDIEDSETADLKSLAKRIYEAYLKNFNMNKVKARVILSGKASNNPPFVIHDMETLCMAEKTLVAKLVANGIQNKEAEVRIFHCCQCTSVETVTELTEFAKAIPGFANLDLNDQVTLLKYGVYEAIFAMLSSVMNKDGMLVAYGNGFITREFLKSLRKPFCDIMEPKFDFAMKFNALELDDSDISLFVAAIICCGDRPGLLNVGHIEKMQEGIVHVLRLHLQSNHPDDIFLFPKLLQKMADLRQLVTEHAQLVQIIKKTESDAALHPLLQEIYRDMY
Assay: PPARα coactivator recruitment

Row | SMILES | agonist activity at PPARα
1 | [2H][C@@]1(Cc2ccc(OCCc3ccc(CC)cn3)cc2)SC(=O)NC1=O [d‐S‐pio, deuterated (S)‐pioglitazone] | Neither pioglitazone, PXL065, nor d‐S‐pio showed binding to PPARα or agonist activity at PPARα or PPARδ
2 | [2H][C@]1(Cc2ccc(OCCc3ccc(CC)cn3)cc2)SC(=O)NC1=O [PXL065, deuterated (R)‐pioglitazone] | Neither pioglitazone, PXL065, nor d‐S‐pio showed binding to PPARα or agonist activity at PPARα or PPARδ
